Experimental data as given in patent US8026252B2 (priority 2005, dated 2011).

The chains behind the UniProt entries cited, without tags or fusion partners.
UniProt P35372, whole entry: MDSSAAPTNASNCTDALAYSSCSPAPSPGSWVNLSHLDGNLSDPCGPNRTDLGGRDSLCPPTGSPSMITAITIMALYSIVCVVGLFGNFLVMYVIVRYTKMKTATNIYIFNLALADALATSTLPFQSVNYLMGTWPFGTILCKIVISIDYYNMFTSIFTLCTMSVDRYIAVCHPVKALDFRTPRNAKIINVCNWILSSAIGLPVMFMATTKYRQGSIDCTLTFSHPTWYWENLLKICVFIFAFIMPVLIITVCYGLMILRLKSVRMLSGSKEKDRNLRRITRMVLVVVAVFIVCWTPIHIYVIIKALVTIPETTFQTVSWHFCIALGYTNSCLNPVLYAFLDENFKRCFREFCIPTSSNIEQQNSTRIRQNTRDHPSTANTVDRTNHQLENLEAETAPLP

Molecular target: T1, human μ opioid receptor (Homo sapiens, UniProt P35372)
T1 construct: expressed in transfected cells
Assay: biochemical
Assay type: binding
Conditions: [3H]DAMGO (μ)

CC(Cc1ccc(-c2ccccc2)cc1)NC(=O)c1ccc2c(c1)[C@@]1(C)CCN(CC3CC3)C(C2)[C@@H]1C (stereo partly shown) [Example 47]
Ki: 7.8 ± 0.99 nM
